ChEMBL document CHEMBL3588758, “Structure-Affinity Relationships (SARs) and Structure-Kinetics Relationships (SKRs) of Kv11.1 Blockers” (J Med Chem, 2015)

Chains of the proteins cited; added tags and fusions are not shown. Lines headed by an entry give the natural chain unless they say otherwise; changes in a name come on top.
UniProt Q12809: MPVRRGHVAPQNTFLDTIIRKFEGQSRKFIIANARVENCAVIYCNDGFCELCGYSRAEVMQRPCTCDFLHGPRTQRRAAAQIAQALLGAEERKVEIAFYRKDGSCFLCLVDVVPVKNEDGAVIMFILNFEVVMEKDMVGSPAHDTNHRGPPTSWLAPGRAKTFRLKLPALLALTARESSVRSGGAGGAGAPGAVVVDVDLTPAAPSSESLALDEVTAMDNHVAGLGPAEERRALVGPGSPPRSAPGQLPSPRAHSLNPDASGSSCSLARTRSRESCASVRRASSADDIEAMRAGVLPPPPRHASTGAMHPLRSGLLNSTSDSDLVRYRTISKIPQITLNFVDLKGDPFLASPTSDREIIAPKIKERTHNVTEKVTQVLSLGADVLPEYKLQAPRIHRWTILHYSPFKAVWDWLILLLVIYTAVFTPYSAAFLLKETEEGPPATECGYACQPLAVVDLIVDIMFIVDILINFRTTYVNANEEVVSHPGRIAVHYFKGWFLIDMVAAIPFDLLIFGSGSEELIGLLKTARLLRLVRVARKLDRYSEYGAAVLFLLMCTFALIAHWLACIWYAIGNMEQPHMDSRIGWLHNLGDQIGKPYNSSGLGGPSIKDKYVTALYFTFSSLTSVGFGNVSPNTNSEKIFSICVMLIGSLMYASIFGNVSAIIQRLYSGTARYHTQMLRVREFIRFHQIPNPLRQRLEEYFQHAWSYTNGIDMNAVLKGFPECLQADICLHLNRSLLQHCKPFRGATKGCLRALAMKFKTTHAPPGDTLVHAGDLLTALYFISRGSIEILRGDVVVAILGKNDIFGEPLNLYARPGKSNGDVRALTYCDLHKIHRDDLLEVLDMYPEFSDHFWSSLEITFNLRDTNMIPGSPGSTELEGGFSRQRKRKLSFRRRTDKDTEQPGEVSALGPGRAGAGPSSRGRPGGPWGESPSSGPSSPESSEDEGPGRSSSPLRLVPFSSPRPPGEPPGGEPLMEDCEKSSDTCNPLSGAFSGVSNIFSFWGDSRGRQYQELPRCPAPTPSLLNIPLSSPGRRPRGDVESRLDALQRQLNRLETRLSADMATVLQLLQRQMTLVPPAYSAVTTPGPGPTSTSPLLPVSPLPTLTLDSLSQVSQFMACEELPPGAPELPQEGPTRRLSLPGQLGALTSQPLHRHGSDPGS

Tests used:
[1] = target: T1, Voltage-gated inwardly rectifying potassium channel KCNH2 (Homo sapiens, UniProt Q12809)
[2] = target: T1, Voltage-gated inwardly rectifying potassium channel KCNH2; remark: listed apart in the source

`CCCCCCCCc1cccc(CCCCCCCC)[n+]1C` was tested, and the Ki [1] was 3.5 nM and the Kd [2] was 1.9 nM.
